AlphaSeq binding of Ab-14 light chain variants to a spike HR2 peptide

The target is the same throughout: PDVDLGDISGINAS, from the HR2 region of SARS-CoV-2 spike.

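The starting antibody came from a phage panning campaign against this peptide. The variants were designed computationally from a first round of random CDR variants and then made and measured. Their group label is 14L_GP_Gibbs (GP: Gaussian process model; Gibbs: Gibbs sampling; a sequence that several methods proposed may carry one label only). Affinity was read by AlphaSeq, a pooled yeast mating assay with surface-displayed partners. The frequency of each diploid, read from paired DNA barcodes, reflects how well the two displayed proteins bind. Scores were corrected for input abundance and mapped to Kd with protein pairs of known affinity run in the same pool. The assay was run in six technical replicates.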

Parent: Ab-14, a human scFv built as VH, a 15-residue (Gly4Ser)3 linker, VL. Only the CDRs of the light chain vary.
VH: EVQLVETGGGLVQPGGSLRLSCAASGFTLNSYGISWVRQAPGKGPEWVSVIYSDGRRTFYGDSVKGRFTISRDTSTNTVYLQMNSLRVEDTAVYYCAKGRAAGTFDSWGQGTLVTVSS
VL: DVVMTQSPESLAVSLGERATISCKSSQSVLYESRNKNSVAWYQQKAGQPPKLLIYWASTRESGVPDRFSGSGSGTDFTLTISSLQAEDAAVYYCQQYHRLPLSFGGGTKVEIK

Each variant is given by its three light chain CDRs, as the data file delimits them; those of the parent are KSSQSVLYESRNKNSVA, WASTRES, QQYHRLPLS.
Scale: log10 of Kd in nM, estimated from mating counts; low values are strong binders.
In the paper, a design with two or fewer of six values counts as a poor binder.
Empty control strains, which show no peptide, gave a signal in 4% of pairings with all light chain designs; the median was 2.64 and 95% of these signals were weaker than 1.59. No background was subtracted. Also given: how often the same scFv was detected with the empty control strains, with their mean in brackets.
The parent sequence was in this pool as ten entries: three were never detected, three once, and four in most replicates, with averages from 0.34 to 2.37.
A sequence measured in both rounds can read differently, since the two assays cover different ranges.

CDR-L1	CDR-L2	CDR-L3	log10 Kd, replicates	empty controls
KQSQSTLYESGMKNSVA	NASKRMD	QQYHRLPLS	0.23 0.25 0.07 0.14 -0.31 0.16	1/18 (2.16)
KSSGSVMGEDMNKNSVA	QASKRES	QQYHRLPLS	0.27 0.28 0.10 0.16 0.21 0.35	1/18 (3.26)
KVEPSVQLEMRNKNSVA	SASTRES	QQYHRLPLS	1.54 0.22 0.87 0.66 0.08 0.03	0/18
KLSWSNLYESRNCNSVA	NASTREV	QQYHRLPLS	0.83 0.75 1.25 0.88 1.41 0.96	0/18
KVSNQADYEDRNKNSVA	DASTRES	QQYHRLPLS	0.32 0.04 0.10 0.04 -0.04 0.28	1/18 (3.39)
KMSQSQLYESRNKNSVA	NGSTRES	QQYHRLPLS	0.21 0.11 0.07 -0.19 0.00 0.29	1/18 (1.75)
KLQQWWLYESRMKNNVA	NASTRED	QQYHRLPLS	1.11 1.41 1.38 1.53 2.00 1.86	1/18 (3.31)
KLMEGWLYESRNKNSVA	NASKRLE	QQYHRLPLS	0.15 0.00 0.02 -0.04 0.06 0.03	1/18 (3.86)
KFSCGVDYESRNKNSVA	GASTRES	QQYHRLPLS	-0.38 -0.55 -0.49 -0.62 -0.66 -0.31	0/18
KQSQAVWYEQRNKNNVA	EGSTRES	QQYHRLPLS	-0.18 -0.36 -0.34 -0.37 -0.37 -0.28	2/18 (2.01)
KFSQSVDYETRQKNSVA	NASTRMS	QQYHRLPLS	0.02 -0.16 -0.16 -0.20 -0.22 -0.04	3/18 (3.32)
ILSYSELYEDRMKNSVA	NASTREQ	QQYHRLPLS	0.38 0.16 -0.02 -0.14 0.06 0.60	2/18 (3.09)
KLQQSEEYESRNFNSVA	EASCRNK	QQYHRLPLS	1.29 1.31 1.12 0.91 1.19 1.30	3/18 (2.87)
KWSCSSLYDDANKNSVA	NASTRLM	QQYHRLPLS	0.32 0.01 -0.18 0.18 -0.06 0.21	1/18 (3.02)
KLSQSVEYESRLKNSVA	EASTREY	QQYHRLPLA	0.58 0.30 0.25 0.30 0.25 0.59	2/18 (3.23)
KSDQSELEEQRNDNSVA	SASTRMS	QQYHRLPLS	0.05 0.13 0.04 0.07 0.04 0.23	2/18 (2.60)
KVSQAVPYESRNLNNVA	DGSTRES	QQYHRLPLS	-0.03 -0.40 -0.45 -0.50 -0.35 -0.26	3/18 (2.77)
KASDGELYESRDDNSVA	DASKRES	QQYHRLPLS	0.33 0.35 0.31 0.15 0.04 0.42	2/18 (3.14)
KLDQWVEMESRNKNSVA	SASQRFS	QQYHRLPLS	0.36 0.35 0.24 0.22 0.28 0.47	1/18 (2.38)
KASPSQEYESRNKQSVA	HASLREE	QQYHRLPLS	0.35 -0.06 -0.18 -0.54 -0.10 -0.19	0/18
KLSMSDLYESRNSNSVA	MASTREK	QQYHRLPLS	1.07 0.66 1.11 1.01 1.84 1.63	0/18
ALSQSELYESRNWNSVA	NASTREK	QQYHRLPLS	0.16 -0.20 0.04 -0.25 -0.21 -0.04	2/18 (2.81)
KVSNQVDYEDRNKNAVA	DASTRES	QQYHRLPLS	0.93 1.31 0.58 0.77 0.68 1.23	0/18
KFSQSVGYESRNKNSVA	NAQTRLE	QQYHRLPLM	0.27 0.05 -0.08 0.00 -0.03 0.23	1/18 (2.75)
KLSQSWLYESRNSNSVA	HASQRED	QQYHRLPLS	-0.09 -0.09 -0.08 -0.10 0.17 0.10	0/18
KLSGSHLYESRNKNSVA	HASLRLS	QCYHRLPLS	0.32 0.19 0.68 0.09 -0.04 0.64	0/18
KVSMSVLYESRVKNSVA	NASQRES	QQYHRLPLI	0.30 0.30 0.20 0.02 0.17 0.32	3/18 (3.29)
KLSMSVDYESRMCNSVA	EASTRES	QQYHRLPLS	0.54 1.01 0.81 0.71 0.67 0.58	0/18
KIQQSMLYESRNSNSVA	NASTRMD	QQYHRLPLM	0.03 0.29 0.31 0.06 0.06 0.38	2/18 (2.37)
KCAQWVDYESRNKNSVA	DASTREQ	QQYHRLPLS	1.65 1.58 0.68 0.83 0.30 1.28	0/18
KLSTSWLYESRMVNAVA	EASTRMD	QQYHRLPLS	0.86 0.20 0.36 0.15 0.36 0.27	1/18 (4.89)
KVQPSWEYEDRNKNSVA	QASQRCS	QQYHRLPLS	-0.05 -0.14 -0.09 -0.14 -0.57 -0.08	0/18
KLSQSFPYESRNKMSVA	NADTREE	QQYHRLPLS	0.00 -0.22 -0.02 -0.09 -0.09 0.27	1/18 (2.78)
KLSQSHLYEERNDNSVA	SASQREM	QQYHRLPLS	0.47 0.31 0.22 0.02 0.29 0.46	2/18 (2.29)

Values reported by Li et al. 2023, doi:10.1038/s41467-023-39022-2 (FLAb copy).